# Binding of CDR-mutated scFvs to a peptide of the spike HR2 region

The measurements come from Engelhart et al. 2022 (doi:10.1038/s41597-022-01779-4) through the FLAb antibody collection.

Target peptide (SARS-CoV-2 spike, HR2 region): PDVDLGDISGINAS

Parent: Ab-95, a human scFv built as VH, a 15-residue (Gly4Ser)3 linker, VL. Only the CDRs of the light chain vary.
VH: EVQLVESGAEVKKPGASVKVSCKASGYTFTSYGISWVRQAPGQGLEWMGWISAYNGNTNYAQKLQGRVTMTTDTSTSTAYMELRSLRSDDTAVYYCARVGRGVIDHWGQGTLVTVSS
VL: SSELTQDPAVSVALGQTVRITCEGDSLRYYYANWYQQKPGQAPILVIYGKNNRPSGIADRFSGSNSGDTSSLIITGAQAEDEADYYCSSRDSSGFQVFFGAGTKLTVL

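The parent was found by panning a naive human phage display library on the peptide. AAYL52 was designed without a model: most single CDR substitutions and a random sample of double and triple ones. AlphaSeq pools MATa yeast showing the antibodies with MATalpha yeast showing the peptide. Binding brings cells together so that they mate, and sequencing counts the barcode pairs among the diploids. Each replicate has its own calibration line, from reference interactions of the BCL2 family. There are three technical replicates.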

Changes read parent residue, position, new residue, counted from the first residue of the VL shown. Affinities are written as log10 Kd with Kd in nM; a lower number is a better binder. A pair that was not seen in that replicate is written "ND"; this usually means weak binding, but a binder can also be missed. In this assay the parent's reference entry averaged 2.31; its copy inside this library read 2.25. Empty control strains, which show no peptide, gave a signal in 28% of pairings with library AAYL52; the median was 3.91 and 95% of these signals were weaker than 2.90. No background was subtracted. For each scFv, signals with the empty controls are counted beside the result, with their mean in brackets.

changes	log10 Kd, replicates	signal with controls
K50E S93W G94N	1.77 2.25 1.61	0 of 9
Y29F Y30G A32T	1.35 1.27 0.78	6 of 9 (4.74)
Y30G A32V R90W	3.09 ND ND	5 of 9 (4.62)
N52K R53L V97N	3.71 3.71 2.51	4 of 9 (4.45)
R28P N51Y R53V	3.32 5.47 ND	4 of 9 (3.68)
A32F N51I R53K	ND ND 3.65	3 of 9 (4.59)
E23A D91K S93L	3.06 ND 2.70	2 of 9 (3.82)
D25W Y30C S92I	3.26 3.96 ND	1 of 9 (3.56)
S26E A32T N51V	ND 4.22 ND	1 of 9 (3.79)
E23H	1.67 1.77 1.54	6 of 9 (4.56)
G24F Y31E N52D	2.83 3.29 3.31	4 of 9 (4.45)
E23S S55M F98M	2.72 2.78 1.76	1 of 9 (4.43)
A32L N52F F95R	2.86 ND ND	3 of 9 (3.73)
N33R S55D Q96I	1.48 1.67 1.93	3 of 9 (4.73)
D25L S55E	1.69 1.79 1.41	6 of 9 (4.43)
E23G R28C N52R	3.63 ND ND	3 of 9 (4.71)
E23A N51E S55Q	2.28 1.94 1.58	6 of 9 (3.63)
N51V P54C Q96H	4.43 4.44 ND	7 of 9 (4.11)
G24F D25T Y29A	2.56 3.55 2.34	0 of 9
G49T S92P Q96G	5.05 5.58 4.33	4 of 9 (4.21)
Y29K K50A D91L	2.92 3.02 1.94	4 of 9 (3.46)
L27N S55K Q96N	3.07 2.85 3.79	2 of 9 (4.76)
Y29V P54D S55H	3.78 ND ND	3 of 9 (4.15)
G24A S89R R90S	ND ND ND	1 of 9 (3.91)
L27A P54F S89R	4.11 ND ND	0 of 9
Y30S N52S S55K	1.56 1.76 1.27	4 of 9 (4.34)
D25G N51E S93W	ND 4.77 ND	2 of 9 (4.39)
D25C Y30V N51A	2.30 2.71 3.00	5 of 9 (4.12)
R28G Y30I S88V	5.30 5.71 4.25	2 of 9 (4.40)
S26H R28C R53Q	4.61 3.12 ND	2 of 9 (4.60)
N33Q D91H V97E	ND 3.91 ND	0 of 9
G24F L27F S89C	ND 3.21 2.83	0 of 9
D25L Y29C N52W	4.46 ND 4.40	7 of 9 (4.01)
Y31M D91G S92A	2.64 2.15 2.32	2 of 9 (4.22)
G24P R28H A32N	2.71 3.95 ND	2 of 9 (2.95)
L27G D91F V97W	3.79 3.96 ND	5 of 9 (4.09)
E23Q R53D Q96C	2.68 2.78 3.08	4 of 9 (4.32)
G24C S55M G94Y	3.30 3.62 4.11	3 of 9 (3.63)
K50A D91C S92L	2.92 2.69 1.90	0 of 9
G49R	ND ND ND	0 of 9
E23G G24E A32L	3.27 2.81 4.11	4 of 9 (4.45)

A selection of 2 entries from above:

{"changes": "Y30S N52S S55K", "log10 Kd, replicates": "1.56 1.76 1.27", "signal with controls": "4 of 9 (4.34)"}
{"changes": "Y30G A32V R90W", "log10 Kd, replicates": "3.09 ND ND", "signal with controls": "5 of 9 (4.62)"}